{
  "source": "paper PMC6529454",
  "about": "“Development of human cGAS-specific small-molecule inhibitors for repression of dsDNA-triggered interferon expression” (Nature Communications, 2019)",
  "origin": "cited, not measured here",
  "system": "mouse macrophages",
  "details": "read-out: IC50 in mouse macrophages; cited from earlier work",
  "data": [
    {"smiles": "Cc1nn(-c2nc3ccc(Cl)c(Cl)c3[nH]2)c(O)c1C1OC(=O)c2ccccc21", "note": "(stereo not shown)", "values": [
      {"measurement": "IC50", "result": 700, "unit": "nM"}
    ]}
  ]
}
